# In PubChem BioAssay AID602281 (The Scripps Research Institute Molecular Screening Center, 2012):
# The chains behind the UniProt entries cited, without tags or fusion partners.
# UniProt Q00G26, whole entry, looked up: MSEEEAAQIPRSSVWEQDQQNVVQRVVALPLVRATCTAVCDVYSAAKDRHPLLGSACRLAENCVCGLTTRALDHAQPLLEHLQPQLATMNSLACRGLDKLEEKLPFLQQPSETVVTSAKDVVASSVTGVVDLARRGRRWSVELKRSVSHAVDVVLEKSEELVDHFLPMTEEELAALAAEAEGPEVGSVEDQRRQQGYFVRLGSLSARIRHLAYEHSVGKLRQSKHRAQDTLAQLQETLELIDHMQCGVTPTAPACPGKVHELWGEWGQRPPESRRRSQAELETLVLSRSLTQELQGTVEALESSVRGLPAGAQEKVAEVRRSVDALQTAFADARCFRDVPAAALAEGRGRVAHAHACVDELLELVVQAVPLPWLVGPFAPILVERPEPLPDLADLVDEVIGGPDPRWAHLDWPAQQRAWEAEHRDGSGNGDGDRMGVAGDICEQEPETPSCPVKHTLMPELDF
# UniProt Q8WTS1, whole entry, looked up: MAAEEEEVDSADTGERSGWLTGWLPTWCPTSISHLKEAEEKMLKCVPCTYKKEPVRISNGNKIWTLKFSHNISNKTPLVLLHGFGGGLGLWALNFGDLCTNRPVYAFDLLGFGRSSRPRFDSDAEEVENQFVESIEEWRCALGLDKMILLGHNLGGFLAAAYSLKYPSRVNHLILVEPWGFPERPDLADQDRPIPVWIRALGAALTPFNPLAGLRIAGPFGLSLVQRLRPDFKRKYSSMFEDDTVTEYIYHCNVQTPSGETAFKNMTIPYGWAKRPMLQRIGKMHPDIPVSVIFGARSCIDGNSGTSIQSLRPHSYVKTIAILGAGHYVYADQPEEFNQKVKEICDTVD
# Only a part is listed here, and it is no random draw. Some tests of the compounds listed are not included; inactive here does not mean inactive elsewhere. The source made the active and inactive calls.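 How the source made its calls: active means inhibition above the mean inhibition across every tested compound plus 3 SD (cut at about 22% in these data); inactive means the rest.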
# Target: Perilipin-5 (Homo sapiens) + 1-acylglycerol-3-phosphate O-acyltransferase ABHD5 (Homo sapiens) (UniProt Q00G26+Q8WTS1)
# Experiment: ABHD5-PLIN5 interaction inhibitors, primary screen, cell lysate, split luciferase complementation, luminescence (AID 602281);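 further: 0% = DMSO only wells and the 100% control is not disclosed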
# Settings: Split G. princeps luciferase complementation, 4 h, at 4 µM, active compounds read high
row,SMILES,inhibition
1,O=C(NCC1(N2CCCCC2)CCCCC1)c1cccc(Br)c1,inactive: 7.46%
2,CCN1CCCC(OC(=O)C2(O)c3ccccc3C=Cc3ccccc32)C1 (stereo unspecified),inactive: 0.96%
3,Cc1cc(C(=O)NCC2(N3CCCCC3)CCCCC2)ccc1[N+](=O)[O-],inactive: -0.78%
4,COc1ccc(C(=O)NCC2(N(C)C)CCCCC2)cc1,inactive: 5.34%
5,O=C(NCC1(N2CCCCC2)CCCCC1)c1cc(F)c(F)cc1Cl,inactive: 5.35%
6,C=CCN1CCN(CCOC(=O)C(O)(c2ccccc2)c2ccccc2)CC1,inactive: 6.28%
7,CN(C)c1ccc(C(=O)NCC2(N(C)C)CCCCC2)cc1,inactive: 4.98%
8,CN(C)C1CCCC1OC(=O)C(O)(c1ccccc1)c1ccccc1 (stereo unspecified),inactive: 1.86%
9,Cc1ccccc1C(=O)NCC1(N2CCCCC2)CCCCC1,inactive: -0.81%
10,Cc1ccc(C(=O)NCC2(N3CCCCC3)CCCCC2)cc1,inactive: -1.88%
11,CC(C)N1C(=O)CC2(CCN(CCOC(=O)C(O)(c3ccccc3)c3ccccc3)CC2)C1=O,inactive: 0.8%
12,COc1cc(SC)ccc1C(=O)NCC1(N(C)C)CCCCC1,inactive: 1.21%
13,CCN(CC)CC(C)C(C)OC(=O)C(O)(c1ccccc1)c1ccccc1 (stereo unspecified),inactive: -0.9%
14,CN1[C@@H]2CC[C@H]1CC(OC(=O)C(O)(c1ccccc1)c1ccccc1)C2 (stereo partly specified),inactive: 1.16%
15,O=C(NCC1(N2CCCCC2)CCCCC1)c1cc([N+](=O)[O-])ccc1Cl,inactive: 1.23%
16,CN(C)c1cccc(C(=O)NCC2(N(C)C)CCCCC2)c1,inactive: -4.61%
17,O=C(OCCN1CCCC1)C(O)(c1ccccc1)c1ccccc1,inactive: 0.95%
18,CC(C)Oc1ccc(C(=O)NCC2(N(C)C)CCCCC2)cc1,inactive: -0.83%
19,COc1ccc(Br)c(C(=O)NCC2(N3CCCCC3)CCCCC2)c1,inactive: -1.41%
20,C=C(C)C#CC(O)(C(=O)OC1CCN(C)CC1)c1ccccc1 (stereo unspecified),inactive: 3.8%
21,O=C(OC1CN2CCC1CC2)C(CO)(c1ccccc1)c1ccccc1 (stereo unspecified),inactive: 3.08%
22,O=C(NCC1(N2CCCCC2)CCCCC1)c1cccc(Cl)c1,inactive: 4.37%
23,COc1ccc(Cl)cc1C(=O)NCC1(N(C)C)CCCCC1,inactive: -7.88%
24,COc1cccc(C(=O)NCC2(N3CCCCC3)CCCCC2)c1,inactive: -0.21%
25,COc1cc(C(=O)NCC2(N(C)C)CCCCC2)c([N+](=O)[O-])cc1OC,inactive: 0.54%
26,CN(C)C1(CNC(=O)c2ccc(Br)cc2)CCCCC1,inactive: 4.35%
